# PubChem BioAssay AID488841 (Sanford-Burnham Center for Chemical Genomics, 2010)
# Only a part is listed here, and it is no random draw. The source made the active and inactive calls.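 Rule for the calls: active = mean inhibition above 50% across duplicate retests at 10 µM; inactive = the rest.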
# Test: inhibition of NALP1/ASC/caspase-1 reporter signal in yeast, confirmation, NALP1 inhibitor project, S. cerevisiae, luminescence, single concentration (AID 488841);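 note: plate controls were DMSO in galactose medium for no effect and cells in plain SD medium for full effect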
# Conditions: S. cerevisiae NALP1/ASC/Caspase-1 reporter, beta-gal luminescence; at 10 µM; hits give high values
row,SMILES,inhibition
1,CC(=O)NC(SC(=S)N(C)C)C(Cl)(Cl)Cl (stereo not drawn),inactive: 44.3%
2,O=[N+]([O-])c1cc([N+](=O)[O-])c(-c2ccn[nH]2)s1,inactive: 47.1%
3,O=C(OC1CN2CCC1CC2)C12CC3CC(CC(C3)C1)C2 (stereo not drawn),inactive: 30.7%
